Experimental data published in US6495314B1, “Process for characterizing proteins” (The Scripps Research Institute, priority 1995, dated 2002).

Assay: Chemical stability and selective cleavage of thioester/ester backbone bonds (HPLC, mass spectrometry)
Conditions: for stability to base hydrolysis: pH 9.0, 100 mM Tris, 1 M Gn.HCl, 23° C., 30 minutes; for stability to hydroxylamine: 200 mM NH4HCO3, pH 6.0, up to 12 hours

Substance | cleavage by hydroxylamine (1 M NH2OH, 200 mM NH4HCO3, pH 6.0, 30 minutes) | stability to base hydrolysis | stability to base hydrolysis (listed as thioester peptide) | hydrolysis after addition of 1 M NaOH (pH ~13, 10 minutes) | stability to hydroxylamine (1 M NH2OH) | stability to hydroxylamine (1 M NH2OH, listed as YKLFAla-[coo]-YGGFL.amide) | hydrolysis of ester bond (6M Guanidine HCl, 100 mM Na phosphate pH 10, six hours) | time to cleave ester bond by hydrolysis (pH 10)
LYRA-Gly-SβAla-YGGFL.amide | completely cleaved | No hydrolysis was observed | no hydrolysis was observed | complete hydrolysis | – | – | – | –
YKLFAla-[COO]-LeuYGGFL.amide | – | – | – | – | completely stable | stable | Complete hydrolysis was observed | six
